In PMC6008493, “Thioamide substitution to probe the hydroxyproline recognition of VHL ligands” (Bioorganic & Medicinal Chemistry, 2018):

How the values were obtained:
VBC = molecular target: T1, VBC (Homo sapiens, UniProt P40337); experiment: Direct FP titration of FAM-labelled HIF-1α peptide; type: binding; conditions: peptide bound to VBC
T1 construct: made in house
Protocol: FP competitive binding experiments were performed on a PHERAstar FS (BMG LABTECH) in 384-well plates (Corning 3575), with an excitation wavelength (λ) at 485 nm and emission (λ)at 520 nm. […] Control wells contained VBC and peptide in the absence of compound (maximum signal), and peptide in the absence of protein (background signal). Data were obtained in triplicate and the percentage of displacement was determined and graphed against log[VHL inhibitors]. Average IC50 values and the standard error of the mean (SEM) were determined for each titration using Prism 6. Dissociation constants Kd were back-calculated from the measured IC50 values using a displacement binding model, as described previously.^6

[1] = molecular target: T2, VBC protein (VHL, elongin B, elongin C) (Homo sapiens, UniProt P40337); experiment: Competitive fluorescence polarization (FP) binding assay displacing FAM-labelled HIF-1α peptide; conditions: back-calculated from measured IC50; 15 nM VBC, 10 nM FAM-HIF-1α peptide, pH 7
T2 construct: made in house
Protocol: Control wells contained VBC and peptide in the absence of compound (maximum signal), and peptide in the absence of protein (background signal). Data were obtained in triplicate and the percentage of displacement was determined and graphed against log[VHL inhibitors]. Average IC50 values and the standard error of the mean (SEM) were determined for each titration using Prism 6. Dissociation constants Kd were back-calculated from the measured IC50 values using a displacement binding model, as described previously.^6

[2] = molecular target: VBC complex (VHL, elongin B, elongin C) (Homo sapiens, UniProt P40337); experiment: Isothermal titration calorimetry (ITC) direct titration; conditions: 25°C

SMILES	Kd (VBC) [µM]	Kd [1] [µM]	ΔH ([2]; ITC enthalpy of binding) [kJ/mol]	Kd ([2]; read-out: Kd ITC, pH 7, 3% DMSO) [µM]
CC[C@H](C)[C@H](NC(=O)[C@H](Cc1ccc(O)cc1)NC(=O)[C@@H]1C[C@@H](O)CN1C(=O)[C@H](C)NC(=O)[C@H](CC(C)C)NC(=O)[C@H](C)NC(=O)[C@H](CCC(=O)O)NC(=O)[C@H](CC(=O)O)NC(=O)c1ccc2c(c1)C(=O)OC21c2ccc(O)cc2Oc2cc(O)ccc21)C(=O)N1CCC[C@H]1C(=O)N[C@@H](CCSC)C(=O)N[C@@H](CC(=O)O)C(=O)N[C@@H](CC(=O)O)C(=O)N[C@@H](CC(=O)O)C(=O)N[C@@H](Cc1ccccc1)C(=O)N[C@@H](CCC(N)=O)C(=O)N[C@@H](CC(C)C)C(=O)N[C@@H](CCCNC(=N)N)C(=O)N[C@@H](CO)C(=O)N[C@@H](Cc1ccccc1)C(=O)O [FAM-labelled HIF-1α peptide]	0.003			
CC(=O)N[C@@H](C)C(=O)N1C[C@H](O)C[C@H]1C(=O)NCc1ccc(-c2scnc2C)cc1 [compound 1]		0.69 ± 0.03	-38.2 ± 0.29	0.44 ± 0.04
